Source: patent US20220251105A1, “METHODS OF TREATING A MK2-MEDIATED DISORDER” (Celgene CAR LLC, priority 2019, published 2022)
Entries after “also recorded” stand apart in the source; their conditions may differ.

By UniProt entry, the sequences of proteins in these tests, tags left out.
UniProt P49137, whole entry: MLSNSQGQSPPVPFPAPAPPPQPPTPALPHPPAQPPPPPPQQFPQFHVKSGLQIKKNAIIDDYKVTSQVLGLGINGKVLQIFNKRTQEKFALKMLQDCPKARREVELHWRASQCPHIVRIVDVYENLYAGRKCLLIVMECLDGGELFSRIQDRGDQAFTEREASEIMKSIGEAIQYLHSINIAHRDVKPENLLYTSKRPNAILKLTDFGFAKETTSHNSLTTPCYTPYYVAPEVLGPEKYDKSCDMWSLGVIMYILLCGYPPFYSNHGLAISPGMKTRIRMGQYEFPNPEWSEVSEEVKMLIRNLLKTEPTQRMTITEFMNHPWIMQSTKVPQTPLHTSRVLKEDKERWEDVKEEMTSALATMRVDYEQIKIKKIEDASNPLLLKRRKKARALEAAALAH

Biological target: MK2 (Homo sapiens, UniProt P49137)
Assay type: binding
Set-up: Full-length histidine-tagged human recombinant MK2 was incubated; histidine tag
Settings: recombinant MK2, Cys140

CCOCc1cnc(Cl)nc1Oc1ccc2c(ccc3sc4c(c32)NC[C@@H](C)NC4=O)n1 [Compound 1]
covalent modification of MK2: formed a covalent bond with human recombinant MK2; also recorded: covalently modifies recombinant MK2 at Cys140
